From ChEMBL document CHEMBL1149344, “Discovery of aminoquinazolines as potent, orally bioavailable inhibitors of Lck: synthesis, SAR, and in vivo anti-inflammatory activity” (J Med Chem, 2006)

Chains of the proteins cited; added tags and fusions are not shown. Lines headed by an entry give the natural chain unless they say otherwise; changes in a name come on top.
UniProt P06239: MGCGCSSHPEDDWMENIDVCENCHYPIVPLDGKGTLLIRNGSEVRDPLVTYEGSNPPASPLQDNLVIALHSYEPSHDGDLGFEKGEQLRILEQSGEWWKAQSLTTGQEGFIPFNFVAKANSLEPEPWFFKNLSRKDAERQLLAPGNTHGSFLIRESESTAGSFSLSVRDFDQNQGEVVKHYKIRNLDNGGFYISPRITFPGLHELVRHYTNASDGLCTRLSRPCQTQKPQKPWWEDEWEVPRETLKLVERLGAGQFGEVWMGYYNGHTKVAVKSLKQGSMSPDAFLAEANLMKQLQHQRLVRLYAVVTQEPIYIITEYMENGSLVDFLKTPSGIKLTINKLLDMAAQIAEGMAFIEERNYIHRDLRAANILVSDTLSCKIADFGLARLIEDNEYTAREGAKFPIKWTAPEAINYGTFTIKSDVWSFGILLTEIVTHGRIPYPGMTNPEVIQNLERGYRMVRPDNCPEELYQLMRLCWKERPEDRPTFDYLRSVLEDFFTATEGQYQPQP

Molecular target: Tyrosine-protein kinase Lck (Homo sapiens, UniProt P06239)

Compound | IC50
Cc1ccc(C(=O)Nc2cccc(C(F)(F)F)c2)cc1-c1ccc2nc(N)ncc2c1 | 0.2 nM
CCN(CC)CC(=O)Nc1ccc(C(F)(F)F)cc1NC(=O)c1ccc(C)c(-c2ccc3nc(NC)ncc3c2)c1 | 0.5 nM
